Data: patent US20220229068A1, “DETECTION OF PROTEIN TO PROTEIN INTERACTIONS” (THE GOVERNING COUNCIL OF THE UNIVERSITY OF TORONTO, priority 2019, published 2022)

Biological target: T1, EGFR/SHC1 interaction (Homo sapiens, UniProt P00533)
T1 construct: expressed in transfected cells; host or cells: HEK 293 / HEK 293 Flp-In T-Rex (Tet-on)
Assay: SIMPL Western blot, EGFR/SHC1 interaction
Assay type: cell-based
Conditions: EGFR-IN/IC-SHC1, inhibitor added with tetracycline 6 h before assay

SIMPL signal (spliced EGFR-SHC1 band) (listed as AG147830): decrease of SIMPL signal
SMILES: COc1cc2ncnc(Nc3cccc(Cl)c3)c2cc1OC [AG1478]
SIMPL signal (spliced EGFR-SHC1 band): diminished with increasing AG1478 concentration
